What was measured:
Type in all cases: cell-based
Estrogen receptor [1] = molecular target: T1, Estrogen receptor (Homo sapiens, UniProt P03372); assay: Antagonist activity at human Gal4-fused ER-alpha expressed in HEK293 cells assessed as inhibition of 17beta-estradiol-induced effect at 3 uM by luciferase reporter gene assay
Procedure, shortened: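 Antagonist mode in transfected HEK293 GAL4-ER luciferase system, with cells co-treated with 0.3 nM 17beta-estradiol. Compound added 8 h post-transfection, 16–20 h treatment, luciferase normalized to beta-galactosidase, triplicate means.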

By UniProt entry, the sequences of proteins in these tests, tags left out.
UniProt P03372, whole entry: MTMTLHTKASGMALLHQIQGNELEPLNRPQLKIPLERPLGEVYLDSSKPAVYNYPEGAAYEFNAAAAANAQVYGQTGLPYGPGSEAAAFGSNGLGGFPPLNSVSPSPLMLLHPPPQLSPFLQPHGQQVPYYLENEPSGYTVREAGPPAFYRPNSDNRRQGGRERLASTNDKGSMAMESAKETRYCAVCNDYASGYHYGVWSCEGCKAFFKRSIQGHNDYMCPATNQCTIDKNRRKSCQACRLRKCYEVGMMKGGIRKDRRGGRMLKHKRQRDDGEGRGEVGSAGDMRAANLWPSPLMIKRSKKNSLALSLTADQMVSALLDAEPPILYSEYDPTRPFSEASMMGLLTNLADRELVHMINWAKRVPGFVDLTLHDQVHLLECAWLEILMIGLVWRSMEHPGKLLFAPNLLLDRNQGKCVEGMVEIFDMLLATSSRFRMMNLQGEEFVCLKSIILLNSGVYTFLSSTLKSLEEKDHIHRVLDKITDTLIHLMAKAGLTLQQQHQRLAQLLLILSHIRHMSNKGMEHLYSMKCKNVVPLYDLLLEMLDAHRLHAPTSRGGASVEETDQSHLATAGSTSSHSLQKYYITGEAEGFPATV
UniProt Q92731, whole entry: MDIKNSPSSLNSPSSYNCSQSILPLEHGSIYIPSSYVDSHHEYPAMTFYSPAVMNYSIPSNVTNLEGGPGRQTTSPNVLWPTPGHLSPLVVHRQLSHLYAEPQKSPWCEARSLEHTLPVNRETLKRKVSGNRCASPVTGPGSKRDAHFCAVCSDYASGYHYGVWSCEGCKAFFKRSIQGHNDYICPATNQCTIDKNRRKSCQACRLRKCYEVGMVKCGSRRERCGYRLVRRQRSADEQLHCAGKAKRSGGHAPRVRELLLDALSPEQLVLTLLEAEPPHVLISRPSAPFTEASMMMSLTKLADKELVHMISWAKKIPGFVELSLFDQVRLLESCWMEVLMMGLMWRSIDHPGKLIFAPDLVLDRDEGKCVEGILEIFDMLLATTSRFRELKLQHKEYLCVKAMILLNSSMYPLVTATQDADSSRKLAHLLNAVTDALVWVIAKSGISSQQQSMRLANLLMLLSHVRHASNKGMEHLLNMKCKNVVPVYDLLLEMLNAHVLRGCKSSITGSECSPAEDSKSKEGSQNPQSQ

Estrogen receptor beta = Estrogen receptor beta (Homo sapiens, UniProt Q92731); assay: Agonist activity at human Gal4-fused ER-beta expressed in HEK293 cells at 10 uM by luciferase reporter gene assay relative to 17beta-estradiol
Procedure, shortened: (§1)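 Agonist mode: HEK293 cells in phenol-red-free DMEM with 5% FBS, 37 °C, 5% CO2, calcium phosphate cotransfected with GAL4-responsive MH100(UAS)x4-tk-LUC reporter, ER receptor fragment plasmid and beta-galactosidase plasmid. Compound added 8 h post-transfection, cells harvested 16–20 h later. Luciferase normalized to beta-galactosidase, triplicate means.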

Estrogen receptor [2] = molecular target: T1, Estrogen receptor; assay: Agonist activity at human Gal4-fused ER-alpha expressed in HEK293 cells at 10 uM by luciferase reporter gene assay relative to 17beta-estradiol; procedure, shortened: as §1

Row | SMILES | inhibition (Estrogen receptor [1]) | Activity (Estrogen receptor beta) | Activity (Estrogen receptor [2])
1 | NS(=O)(=O)Oc1ccc(Cc2ccc(OS(N)(=O)=O)cc2)cc1 | 55.3% | – | –
2 | C[Si](C)(c1ccc(O)cc1)c1ccc(O)cc1 | – | 33.5% | –
3 | NS(=O)(=O)Oc1ccc(Sc2ccc(OS(N)(=O)=O)cc2)cc1 | 37.5% | – | 100%
